Experiment [1] concerns the target ABAP1 (Hordeum vulgare, UniProt Q9LLX3). Nature of the experiment: ABA binding assay with purified recombinant ABAP1. Further details: species or system barley. As to the method:
Purified ABAP1 protein was used to determine the ABA binding activity as described (15) with some modifications as follows. Generally, the incubation medium consisted of 25 mM Tris buffer, pH 7.3 (except when testing ABA binding at different pH) and 250 mM sucrose, 5 mM MgCl2, 3+1 mM CaCl2, 50 nM ^3H^+-ABA (except when the kinetics of ABAP1 was determined), and 10 μg ABAP1. Other additions or changes to the incubation system are discussed in the figure legends. All binding assays were carried out at a final volume of 150 μL at 4° C. for 1 hour. The mixture was then rapidly filtered through a nitrocellulose membrane, washed with 5 mL, of cold 0.5× binding buffer by rapid filtration, dried in air and counted in a scintillation counter (Wallac 1414 WinSpectral v1.40). To ensure the efficiency of membrane washing and that only bound ^3H^+-ABA was counted, aliquots of the binding mixtures were mixed with a 100 μL of 0.5% (w/v) DCC (Dextran T70-coated charcoal) to remove any free ABA by adsorption. […] The resulted supernatant was then counted in a scintillation counter to determine the binding activity. […] Specific binding (SB) was calculated by taking the difference for assays with only ^3H^+-ABA (total binding) and assays that also contain 5 μM (+) ABA added at the same time as ^3H^+-ABA (non-specific binding). […]

Sequences of proteins named here, by UniProt entry; tags and fusion partners are left off.
UniProt Q9LLX3, entry or part of it: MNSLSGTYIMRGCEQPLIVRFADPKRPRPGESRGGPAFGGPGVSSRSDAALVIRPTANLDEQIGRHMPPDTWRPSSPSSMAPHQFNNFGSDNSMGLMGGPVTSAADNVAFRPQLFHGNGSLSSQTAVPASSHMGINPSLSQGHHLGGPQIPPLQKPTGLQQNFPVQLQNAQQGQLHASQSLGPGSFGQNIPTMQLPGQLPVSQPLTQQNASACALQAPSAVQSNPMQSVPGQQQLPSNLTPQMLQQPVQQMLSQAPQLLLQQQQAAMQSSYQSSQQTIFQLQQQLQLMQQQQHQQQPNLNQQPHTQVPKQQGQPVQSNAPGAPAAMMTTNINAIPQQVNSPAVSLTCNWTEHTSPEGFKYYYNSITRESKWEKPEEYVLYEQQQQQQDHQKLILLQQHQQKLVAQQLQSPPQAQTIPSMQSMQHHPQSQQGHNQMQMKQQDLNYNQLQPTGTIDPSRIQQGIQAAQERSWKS

In experiment [2] the target is T1, FCA protein (Arabidopsis thaliana, UniProt O04425).
T1 sequence (O04425 1-747 isoform O04425-1): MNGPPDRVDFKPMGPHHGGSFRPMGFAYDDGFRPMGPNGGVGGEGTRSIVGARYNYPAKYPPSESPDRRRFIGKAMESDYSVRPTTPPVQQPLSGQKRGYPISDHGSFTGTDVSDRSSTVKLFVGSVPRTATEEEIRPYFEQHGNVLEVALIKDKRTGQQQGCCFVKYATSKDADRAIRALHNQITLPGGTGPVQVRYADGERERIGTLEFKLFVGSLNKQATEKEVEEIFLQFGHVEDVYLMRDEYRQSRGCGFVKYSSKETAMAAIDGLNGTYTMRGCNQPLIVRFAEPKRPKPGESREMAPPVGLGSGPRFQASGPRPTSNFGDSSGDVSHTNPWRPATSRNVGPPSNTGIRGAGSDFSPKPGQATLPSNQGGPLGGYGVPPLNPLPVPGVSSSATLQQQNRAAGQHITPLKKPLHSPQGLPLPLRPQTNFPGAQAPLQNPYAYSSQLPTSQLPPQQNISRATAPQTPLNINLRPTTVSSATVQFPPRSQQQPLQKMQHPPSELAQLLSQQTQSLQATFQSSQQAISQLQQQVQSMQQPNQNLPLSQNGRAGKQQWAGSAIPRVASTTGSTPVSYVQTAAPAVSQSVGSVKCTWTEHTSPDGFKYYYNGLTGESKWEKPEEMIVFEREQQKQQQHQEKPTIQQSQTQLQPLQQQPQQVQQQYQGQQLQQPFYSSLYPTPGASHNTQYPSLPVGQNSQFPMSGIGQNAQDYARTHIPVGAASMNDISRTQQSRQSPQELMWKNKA
Description: ABA binding assay with purified recombinant FCA. Further details: Kd; other: analog added in higher concentrations than 3H+-ABA (20-5000 nM); other: Scatchard analysis, r^2=0.88; other: in presence of 5 μM unlabelled (+)-ABA; pH range of maximum; fused on or other part: GST fused on for purification. Conditions: Scatchard analysis of saturation binding. The method, then:
Crude lysate and purified FCA protein were used to determine the ABA binding activity as described^V. Briefly, the incubation medium consisted of 12.5 mM Tris-HCl, pH 7.3 containing 50 nm ^3H^+-ABA (except when the kinetics of FCA was determined), and 10 μg purified FCA protein or the equivalent of 50 μg crude lysate. […] The mixture was then rapidly filtered through a nitrocellulose membrane, washed with 0.5× binding buffer, air dried and counted in a scintillation counter (Wallac 1414 WinSpectral v1.40). Heat denatured FCA protein was used to used determine the protein nature of the FCA and BSA was used as a control. All binding studies were carried out using three different GST affinity chromatography protein purifications with triplicate assays for each purification. For the competitive assays, ABA analogs (−)-ABA and trans-ABA were added at the same time as ^3H^+-ABA at different concentrations (20-5000 nM). Specific binding was calculated by taking the difference for assays with only ^3H^+-ABA (total binding) and assays that also contained 5 μM (±)-ABA added at the same time as ^3H^+-ABA (non-specific binding). Binding was represented as the number of moles of ^3H^+-ABA per mole of FCA protein.

Several values for one entry are separate records, joined by “and”; a condition that tells them apart may be missing. Identical values can stand only once. Like-named read-outs stand apart in the source and are kept apart here.

As to abscisic acid [ABA], the Kd in experiment [1] (Scatchard plot, one binding site) was 28 nM and ~28 nM; in experiment [1] (read-out: dissociation constant Kd, Scatchard plot analysis, 3H+-ABA saturation binding) it was roughly 28 nM; in experiment [2], 19 nM and ~19 nM.
